Laboratory results reported in patent US7375074B2, “Body weight gain inhibitor” (priority 2001, dated 2008).

What was measured:
[1] = Food consumption, body weight gain and organ weight in rat, continuous administration under the skin; type: in vivo
Experimental: (§1) Wistar male rats (eight weeks age, Charles River Japan, Inc.) were naturalized with MF powdered food (Oriental Yeast, Co., Ltd.) for about one week. An osmotic pump (alzet, MINI-OSMOTIC PUMP Model 2001, release rate: 24 μl/day), wherein 200 μl of hGPR8L(1-23) [human GPR8 ligand (1-23)] dissolved in saline at the concentration of 1 mM, or 200 μl of saline was filled, was loaded under the skin (at the center of back) of the above rats anesthetized by pentobarbital (each n=6). The next day on loading was set to zero. Under free feeding of MF powdered food, until the eighth day, food consumption and body weight were measured at 8:00 and 20:00. The light period was set from 8:00 to 20:00, and the dark period was set from 20:00 to next 8:00. After measurement at 8:00 on the eighth day, the rats were slaughtered by decapitation. The weight of liver, kidney, heart, spleen, testis, fat around kidney, fat around genitals and brown fat was measured. All animals were bred for the light period of 12 hours (the light period was set from 8:00 to 20:00).

[2] = Glucose in blood, total cholesterol and triglyceride in rat, continuous administration under the skin; type: in vivo; conditions: continuous s.c., eighth day
Experimental: as §1
Glucose in blood, total cholesterol and triglyceride on the eighth day after administration of hGPR8L(1-23) and vehicle described in (1) was measured using Fuji DRI CHEM.

[3] = Food consumption and body weight gain in rat, intraperitoneal administration; type: in vivo
Experimental: As Example 1, Wistar male rats (eight weeks age, Charles River Japan, Inc.) were naturalized with MF powdered food (Oriental Yeast, Co., Ltd.) for about one week. The hGPR8L(1-23) [human GPR8 ligand (1-23)] dissolved in saline at the concentration of 0.2 mg/ml and 2 mg/ml, or saline as a vehicle group was intraperistoneally administered at the ratio of 1 ml/kg just before dark period (between 19:45 and 20:00). This administration was carried out for three days (each n=10). At eight o'clock on the day after administration, food consumption and body weight were measured. All animals were bred for the light period of 12 hours, wherein the light period was set from 8:00 to 20:00, and the dark period was set from 20:00 to next 8:00.

GPR7 = molecular target: T1, GPR7 (Homo sapiens, UniProt P48145); assay: Promoting activity to GTPγS binding, membrane fraction of GPR7 expressing CHO cells; type: biochemical; parameters: expressed in transfected cells; host or cells: CHO dhfr- cells, plasmid pAKKO-Human GPR7, clones 7, 8 and 14
T1 sequence (P48145 1-328): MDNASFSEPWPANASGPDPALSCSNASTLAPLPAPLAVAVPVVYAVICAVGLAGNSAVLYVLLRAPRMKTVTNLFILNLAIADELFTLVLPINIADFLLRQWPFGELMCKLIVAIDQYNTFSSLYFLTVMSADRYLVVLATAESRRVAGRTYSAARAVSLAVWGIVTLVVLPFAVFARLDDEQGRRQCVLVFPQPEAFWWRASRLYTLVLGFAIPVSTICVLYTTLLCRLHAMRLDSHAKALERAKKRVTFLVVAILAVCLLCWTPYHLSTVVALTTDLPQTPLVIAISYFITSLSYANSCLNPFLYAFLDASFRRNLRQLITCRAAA
Experimental: Promoting activity for [^35S]-guanosine 5′-(γ-thio) triphosphate (GTPγS) binding to the membrane fraction of GPR7 expressing CHO cells was assayed as follows.
The membrane fraction of the GPR7 expressing CHO cell, which was prepared by the method described in Reference Example 82, was diluted with a buffer for membrane dilution (50 mM Tris-hydrochloride buffer (pH 7.4), 5 mM MgCl2, 150 mM NaCl, 1 μM GDP) to make a cell membrane fraction solution for assay having a protein concentration of 30 mg/ml. […] After washing twice with 1.5 ml of a washing buffer (50 mM Tris-hydrochloride buffer (pH 7.4), 5 mM MgCl2, 1 mM EDTA, 0.1% BSA), radioactivity of the filter was measured using a liquid scintillation counter.
By administering hGPR8L(1-23) and hGPR8L(1-30) at various concentrations to the membrane fraction of GPR7 expressing CHO cells in accordance with the method described in I) above, a promoting activity to GTPγS binding was measured.
A promoting activity to GTPγS binding was measured by administering at various concentrations the human- and porcine-homologue derivatives of GPR8 ligand peptide obtained in Reference Example to the membrane fraction of GPR7 expressing CHO cells. […]

[4] = continuous s.c. osmotic pump, 1 mM, 24 μl/day, vs vehicle group
[5] = continuous s.c., eighth day, means ± standard error, n = 6

CSCC[C@H](NC(=O)[C@H](CC(C)C)NC(=O)[C@H](CC(C)C)NC(=O)CNC(=O)[C@H](C)NC(=O)[C@H](C)NC(=O)[C@H](CCCNC(=N)N)NC(=O)CNC(=O)[C@@H](NC(=O)[C@@H](NC(=O)[C@H](Cc1c[nH]cn1)NC(=O)[C@H](Cc1ccc(O)cc1)NC(=O)[C@H](CCCNC(=N)N)NC(=O)[C@@H]1CCCN1C(=O)[C@H](CO)NC(=O)[C@H](C)NC(=O)[C@@H](NC(=O)[C@H](Cc1c[nH]cn1)NC(=O)[C@H](CCCCN)NC(=O)[C@H](Cc1ccc(O)cc1)NC(=O)[C@@H](N)Cc1c[nH]c2ccccc12)C(C)C)[C@@H](C)O)C(C)C)C(=O)NCC(=O)N[C@@H](CC(C)C)C(=O)O [hGPR8L(1-23)]
suppression of body weight gain vs vehicle group ([1]; continuous s.c. for one week): about 10.7 g | food consumption in the dark period [1, 4]: a tendency to decrease | food consumption in the light period [1, 4]: no difference between both groups was observed | total food consumption of a day [1, 4]: a decrease was found | decrease of fat around genitals vs vehicle group ([1]; continuous s.c., eighth day): 0.7 g | decrease of fat around kidney (white fat tissue) vs vehicle group ([1]; continuous s.c., eighth day): 1.2 g | decrease of liver weight vs vehicle group ([1]; continuous s.c., eighth day): 1.6 g | weight of organs: Brown fat [1, 5]: 0.45 ± 0.05 g | weight of organs: Fat around genitals [1, 5]: 5.5 ± 0.38 g | weight of organs: Fat around kidney [1, 5]: 3.8 ± 0.53 g | weight of organs: Heart [1, 5]: 1.1 ± 0.04 g | weight of organs: Kidney [1, 5]: 2.6 ± 0.09 g | weight of organs: Liver [1, 5]: 14.2 ± 0.7 g | weight of organs: Spleen [1, 5]: 1.0 ± 0.06 g | weight of organs: Testis [1, 5]: 3.4 ± 0.12 g | body weight gain ([1]; continuous s.c., from zero day to the seventh day): 28.9 ± 3.2 g | body weight (means±standard error) ([1]; continuous s.c., seventh day): 364.6 ± 6.0 g | glucose in blood [2]: 155 ± 4.5 mg/dL | total cholesterol in blood [2]: 69.1 ± 1.8 mg/dL | triglyceride in blood [2]: 134 ± 28 mg/dL | triglyceride in blood, difference (lower) vs vehicle group [2]: at least 30 mg/dl | food consumption ([3]; i.p. 2 mg/kg, all three days after administration, vs vehicle group (p<=0.05 or p<=0.01)): significant decrease | body weight gain ([3]; i.p. 2 mg/kg, all three days, vs vehicle group): a tendency to decrease | body weight gain, difference among the means vs vehicle group ([3]; i.p. 2 mg/kg, the first day): 1.2 g | body weight gain, difference among the means vs vehicle group ([3]; i.p. 2 mg/kg, the second day): 3.1 g | body weight gain, difference among the means vs vehicle group ([3]; i.p. 2 mg/kg, the third day): 2.3 g | food consumption ([3]; i.p. 0.2 and 2 mg/kg just before dark period, three days, vs vehicle group): a tendency to decrease was demonstrated depending on dose | promoting activity to GTPγS binding (in words) (GPR7): apparently promote GTPγS binding

CSCC[C@H](NC(=O)[C@H](CC(C)C)NC(=O)[C@H](CC(C)C)NC(=O)CNC(=O)[C@H](C)NC(=O)[C@H](C)NC(=O)[C@H](CCCNC(=N)N)NC(=O)CNC(=O)[C@@H](NC(=O)[C@@H](NC(=O)[C@H](Cc1c[nH]cn1)NC(=O)[C@H](Cc1ccc(O)cc1)NC(=O)[C@H](CCCNC(=N)N)NC(=O)[C@@H]1CCCN1C(=O)[C@H](CO)NC(=O)[C@H](C)NC(=O)[C@@H](NC(=O)[C@H](Cc1c[nH]cn1)NC(=O)[C@H](CCCCN)NC(=O)[C@H](Cc1ccc(O)cc1)NC(=O)[C@@H](N)Cc1c[nH]c2ccccc12)C(C)C)[C@@H](C)O)C(C)C)C(=O)NCC(=O)N[C@@H](CC(C)C)C(=O)N[C@@H](CCCNC(=N)N)C(=O)N[C@@H](CCCNC(=N)N)C(=O)N[C@@H](CO)C(=O)N1CCC[C@H]1C(=O)N[C@@H](Cc1ccc(O)cc1)C(=O)N[C@@H](CC(C)C)C(=O)N[C@@H](Cc1c[nH]c2ccccc12)C(=O)O [hGPR8L(1-30)]
promoting activity to GTPγS binding (in words) (GPR7): apparently promote GTPγS binding
